Active and inactive are the calls of the source.
Molecular target: Protein skinhead-1 (Caenorhabditis elegans) (UniProt P34707)
Assay: SKN-1 inhibitor hit potency, dose response, fluorescence ratio readout (AID 624474)
Conditions: SKN-1 inhibitor fluorescence ratio assay

Protein sequences, listed by entry. Tags and fused reporters are not part of them. Lines headed by an entry give the natural chain unless they say otherwise; changes in a name come on top.
UniProt P34707: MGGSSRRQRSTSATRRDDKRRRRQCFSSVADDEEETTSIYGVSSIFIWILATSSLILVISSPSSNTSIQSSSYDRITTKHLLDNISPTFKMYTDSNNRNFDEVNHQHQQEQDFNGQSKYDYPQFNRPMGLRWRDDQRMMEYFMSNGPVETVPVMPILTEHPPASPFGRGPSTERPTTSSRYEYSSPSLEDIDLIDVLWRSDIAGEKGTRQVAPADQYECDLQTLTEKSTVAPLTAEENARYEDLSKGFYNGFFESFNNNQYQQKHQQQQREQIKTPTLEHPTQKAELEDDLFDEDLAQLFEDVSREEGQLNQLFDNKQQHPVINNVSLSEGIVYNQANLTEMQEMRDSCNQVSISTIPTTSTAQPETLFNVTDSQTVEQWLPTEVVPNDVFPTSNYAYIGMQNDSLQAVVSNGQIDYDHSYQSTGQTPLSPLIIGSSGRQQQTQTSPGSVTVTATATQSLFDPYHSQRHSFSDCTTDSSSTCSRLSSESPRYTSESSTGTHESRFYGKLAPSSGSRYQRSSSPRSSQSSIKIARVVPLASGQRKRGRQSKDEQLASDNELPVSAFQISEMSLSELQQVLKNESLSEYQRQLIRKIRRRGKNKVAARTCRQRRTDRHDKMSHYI

| SMILES | IC50 |
| --- | --- |
| CC1=CC2OC3CC4OC(=O)C=CC=CC(C(C)O)OCC(O)C5(C)OC5C(=O)OCC2(CC1O)C4(C)C31CO1 (configuration not stated) | inactive: > 100 µM |
| CC(=O)OC1C(=O)OCC23CCC4(C)OC4C2OC2CC(OC(=O)C=CC=CC(=O)OCCC1C)C3(C)C21CO1 (configuration not stated) | inactive: > 100 µM |
